For experiment [1], the target named is T1, Cholecystokinin receptor type A (Homo sapiens, UniProt P32238). The experiment can be described thus: Displacement of [125I-BDZ-1] from human CCK1R M3.32A mutant expressed in CHO cells after 60 mins by scintillation counter.
Experiment [2] deals with T1, Cholecystokinin receptor type A. The experiment can be described thus: Displacement of [125I-BDZ-1] from human CCK1R L7.39H mutant expressed in CHO cells after 60 mins by scintillation counter. In general terms: Displacement assays read how much labelled ligand stays bound in the presence of the test substance.
Experiment [3] deals with T2, Gastrin/cholecystokinin type B receptor (Homo sapiens, UniProt P32239).
T2 sequence (P32239 whole entry): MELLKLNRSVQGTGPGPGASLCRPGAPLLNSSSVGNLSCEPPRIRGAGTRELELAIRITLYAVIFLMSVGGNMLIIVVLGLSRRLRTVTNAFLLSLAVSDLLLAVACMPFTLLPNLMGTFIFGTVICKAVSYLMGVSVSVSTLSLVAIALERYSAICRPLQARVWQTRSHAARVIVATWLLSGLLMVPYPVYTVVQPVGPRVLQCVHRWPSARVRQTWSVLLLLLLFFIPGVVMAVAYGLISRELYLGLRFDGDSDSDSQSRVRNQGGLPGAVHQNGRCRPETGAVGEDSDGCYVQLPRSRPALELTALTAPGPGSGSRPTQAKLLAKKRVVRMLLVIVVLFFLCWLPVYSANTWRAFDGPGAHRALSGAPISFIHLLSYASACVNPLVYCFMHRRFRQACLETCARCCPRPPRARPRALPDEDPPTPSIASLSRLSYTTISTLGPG
The experiment can be described thus: Agonist activity at human CCK2R T2.61N mutant expressed in CHO cells assessed as intracellular calcium response by fluorescence analysis. On the technique in general: Calcium assays in cells follow changes in intracellular calcium, usually with a dye or a luminescent sensor.

By UniProt entry, the sequences of proteins in these tests, tags left out.
UniProt P32238, whole entry M121A: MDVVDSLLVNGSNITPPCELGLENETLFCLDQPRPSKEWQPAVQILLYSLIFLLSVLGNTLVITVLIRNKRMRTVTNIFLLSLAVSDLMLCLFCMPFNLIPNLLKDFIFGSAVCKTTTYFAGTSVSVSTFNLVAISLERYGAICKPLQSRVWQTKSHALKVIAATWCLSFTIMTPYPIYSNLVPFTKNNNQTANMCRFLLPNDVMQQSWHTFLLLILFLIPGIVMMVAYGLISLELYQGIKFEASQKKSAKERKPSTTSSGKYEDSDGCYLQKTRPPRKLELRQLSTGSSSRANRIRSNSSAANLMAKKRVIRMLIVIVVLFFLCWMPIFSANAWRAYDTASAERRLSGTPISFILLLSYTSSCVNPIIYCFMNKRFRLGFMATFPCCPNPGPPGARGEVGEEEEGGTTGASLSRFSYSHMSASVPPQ
UniProt P32238, whole entry L356H: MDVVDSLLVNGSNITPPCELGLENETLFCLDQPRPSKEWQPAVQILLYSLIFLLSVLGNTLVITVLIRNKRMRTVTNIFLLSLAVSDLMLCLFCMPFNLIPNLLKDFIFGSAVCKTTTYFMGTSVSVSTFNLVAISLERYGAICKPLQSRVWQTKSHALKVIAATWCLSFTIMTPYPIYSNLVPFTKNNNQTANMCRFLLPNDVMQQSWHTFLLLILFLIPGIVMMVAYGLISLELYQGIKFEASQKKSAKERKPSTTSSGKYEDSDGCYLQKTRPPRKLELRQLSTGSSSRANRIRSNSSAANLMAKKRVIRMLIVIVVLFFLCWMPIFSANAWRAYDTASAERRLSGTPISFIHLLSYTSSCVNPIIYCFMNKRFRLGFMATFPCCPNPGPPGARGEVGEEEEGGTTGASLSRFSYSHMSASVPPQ

In experiment [4] the target is T2, Gastrin/cholecystokinin type B receptor. Briefly: Agonist activity at human CCK2R V3.28T, S3.29T mutant expressed in CHO cells assessed as intracellular calcium response by fluorescence analysis.

The structures appear in SMILES notation.

The IC50 is the concentration at which inhibition is half-maximal. Higher therefore signals weaker potency. Usually EC50 stands for the midpoint of the concentration-response curve.

For `Cc1cc(C)cc(C[C@H]2CCCCN2C(=O)CN2C(=O)[C@@H](Cc3n[nH]c4ccccc34)c3nnc(-c4ccccc4)n3-c3ccccc32)c1`, the IC50 in experiment [1] and in experiment [2] was < 1000 nM throughout.

`CC(C)N(Cc1ccccc1)C(=O)CN1C(=O)[C@@H](Cc2c[nH]c3ccccc23)c2nnc(-c3ccccc3)n2-c2ccccc21` [2-((4S)-4-((1H-indol-3-yl)methyl)-5-oxo-1-phenyl-4H-benzo[b][1,2,4]triazolo[4,3-d][1,4]diazepin-6(5H)-yl)-N-benzyl-N-isopropylacetamide]: the EC50 in experiment [3] and in experiment [4] was < 1000 nM throughout.

The values are drawn from BindingDB's records for doi:10.1021/acs.jmedchem.5b01110 (Mayo Clinic, 2015).
